The data set has as its system WEHI-164 fibrosarcomas. As to the kind of experiment: Tumor and organ uptake of IRDye 680 conjugates in WEHI-164 tumor-bearing mice. Type of data set: in vivo. The settings on record: 20 µg i.v., 24 h; ratio CD31+CD45− / CD45+ cells.

With “*HSA/IRDye 680: *HSA labeled with IRDye 680, control”, the “Relative staining of endothelial cells/leukocytes versus controls” value is reported as “but not for *HSA/IRDye 680 compared to controls”.

(Values after PMC4876925 (Nano research, 2016).)
